Amino acid sequences for entries named in this document (tags omitted).
UniProt P42336, whole entry, looked up: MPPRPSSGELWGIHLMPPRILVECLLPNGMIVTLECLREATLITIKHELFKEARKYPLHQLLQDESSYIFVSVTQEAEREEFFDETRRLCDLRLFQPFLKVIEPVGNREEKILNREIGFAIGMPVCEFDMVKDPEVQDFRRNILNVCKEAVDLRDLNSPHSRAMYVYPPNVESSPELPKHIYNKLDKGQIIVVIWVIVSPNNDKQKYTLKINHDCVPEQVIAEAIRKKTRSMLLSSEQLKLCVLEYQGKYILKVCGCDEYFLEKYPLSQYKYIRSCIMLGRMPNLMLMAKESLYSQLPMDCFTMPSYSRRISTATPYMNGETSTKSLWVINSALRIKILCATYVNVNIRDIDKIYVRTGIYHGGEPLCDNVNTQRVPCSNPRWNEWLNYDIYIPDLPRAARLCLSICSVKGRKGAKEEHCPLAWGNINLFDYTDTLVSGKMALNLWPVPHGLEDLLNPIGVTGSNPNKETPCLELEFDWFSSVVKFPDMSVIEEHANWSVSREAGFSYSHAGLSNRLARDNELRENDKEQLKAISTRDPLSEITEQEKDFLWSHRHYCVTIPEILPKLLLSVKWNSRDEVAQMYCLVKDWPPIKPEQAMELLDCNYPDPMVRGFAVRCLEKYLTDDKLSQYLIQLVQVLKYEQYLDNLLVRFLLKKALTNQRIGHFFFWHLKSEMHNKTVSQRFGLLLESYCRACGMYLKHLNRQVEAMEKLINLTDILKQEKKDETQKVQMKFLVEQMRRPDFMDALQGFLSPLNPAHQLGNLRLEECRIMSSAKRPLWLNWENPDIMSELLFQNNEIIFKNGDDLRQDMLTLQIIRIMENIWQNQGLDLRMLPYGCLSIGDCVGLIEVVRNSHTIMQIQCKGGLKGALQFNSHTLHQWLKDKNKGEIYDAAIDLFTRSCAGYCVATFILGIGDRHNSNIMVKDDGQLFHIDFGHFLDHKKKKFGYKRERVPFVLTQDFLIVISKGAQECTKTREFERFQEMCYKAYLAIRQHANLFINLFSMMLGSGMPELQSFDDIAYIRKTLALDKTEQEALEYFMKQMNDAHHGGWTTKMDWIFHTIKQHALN

In the Kinase Knowledgebase extract (Sharma et al. 2016):

Molecular target: PIK3CA (human) (UniProt P42336)
Experiment: Enzyme Assay

CCc1ncnc(-c2ccc(C(=O)N3CC[C@H](N(C)C)C3)c(C)c2)c1C#Cc1ccc(N)nc1
IC50: 190 nM
